Source: patent US8703784B2, “Substituted pyrazolo[1,5-a]pyrido[3.2-e]pyrimidin-6-one inhibitors of mammalian target of rapamycin” (Merck Sharp & Dohme Corp., priority 2010, dated 2014)

Target: mTOR enzyme (Homo sapiens, UniProt P42345)
Assay: mTOR Kinase Assay
Details: read-out: mTOR Activity; 5 μM ATP, 0.1 μM GSTS6K substrate; tested form: 2HCl
Method: The mTOR assay buffer contains 10 mM hepes (pH 7.4), 50 mM NaCl, 100 μg/ml BSA, 50 mM B-glycerophosphate, 10 mM MnCl2 and 0.5 mM DTT. 20 ng of mTOR enzyme is preincubated with the compound for 10 minutes. 5 μM ATP and 0.1 μM GSTS6K is added. The reaction is incubated for one hour at 30° C. Anti phospho p70S6K (about 1.7 ng/well) and anti GSTXL665 (1:1 Ratio with the substrate GSTS6K) are added after incubating. The plates are read at least 2 hours after adding the anti phospho p70S6K and the anti GSTXL665.
Dose-response curves were plotted from inhibition data generated, each in duplicate, from 8 point serial dilutions of inhibitory compounds. Concentration of compound was plotted against % kinase activity, calculated by CPM of treated samples divided by CPM of untreated samples. To generate IC50 values, the dose-response curves were then fitted to a standard sigmoidal curve and IC50 values were derived by nonlinear regression analysis.

CC(NC(=O)C(C)(CO)CO)c1nc2c(-c3cnc4ccc(F)cc4c3)cnn2c2c1C(=O)CCN2 (stereo not shown)
IC50: 10 to 100 nM
